The record followed here is PubChem BioAssay AID1456 (Vanderbilt High Throughput Screening Facility, 2008).

The chains behind the UniProt entries cited, without tags or fusion partners. Where a name states a change or a piece, a line headed by the entry shows the natural chain unless it says otherwise.
UniProt Q9H2X9: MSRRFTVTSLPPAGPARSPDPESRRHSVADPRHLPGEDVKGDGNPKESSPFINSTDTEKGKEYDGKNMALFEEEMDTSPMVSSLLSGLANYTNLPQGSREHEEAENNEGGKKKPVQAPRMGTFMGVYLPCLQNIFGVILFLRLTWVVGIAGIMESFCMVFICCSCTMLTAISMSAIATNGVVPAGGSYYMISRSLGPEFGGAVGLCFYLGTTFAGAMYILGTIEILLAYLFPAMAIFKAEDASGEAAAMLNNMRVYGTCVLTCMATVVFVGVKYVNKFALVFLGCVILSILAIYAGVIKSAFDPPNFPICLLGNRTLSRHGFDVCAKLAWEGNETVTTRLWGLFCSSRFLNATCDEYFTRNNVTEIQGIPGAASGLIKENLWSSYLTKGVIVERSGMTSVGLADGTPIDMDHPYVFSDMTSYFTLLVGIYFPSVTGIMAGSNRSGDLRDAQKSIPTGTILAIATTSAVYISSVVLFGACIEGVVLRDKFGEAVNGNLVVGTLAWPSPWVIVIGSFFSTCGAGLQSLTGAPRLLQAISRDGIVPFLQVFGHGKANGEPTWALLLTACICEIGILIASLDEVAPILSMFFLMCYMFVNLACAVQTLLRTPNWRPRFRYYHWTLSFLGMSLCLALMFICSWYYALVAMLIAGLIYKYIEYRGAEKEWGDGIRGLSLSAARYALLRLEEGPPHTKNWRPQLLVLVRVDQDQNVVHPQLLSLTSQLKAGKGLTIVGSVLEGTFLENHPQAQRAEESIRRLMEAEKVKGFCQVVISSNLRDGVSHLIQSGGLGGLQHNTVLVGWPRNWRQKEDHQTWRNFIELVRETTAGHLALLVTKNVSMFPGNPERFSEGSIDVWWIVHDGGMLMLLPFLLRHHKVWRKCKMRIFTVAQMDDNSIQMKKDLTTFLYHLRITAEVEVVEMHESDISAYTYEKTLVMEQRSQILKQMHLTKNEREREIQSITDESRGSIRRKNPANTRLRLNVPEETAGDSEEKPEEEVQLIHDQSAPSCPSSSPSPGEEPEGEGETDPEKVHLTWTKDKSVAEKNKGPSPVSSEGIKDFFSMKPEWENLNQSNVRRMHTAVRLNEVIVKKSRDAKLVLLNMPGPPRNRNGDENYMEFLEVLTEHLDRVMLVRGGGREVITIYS

Only a part is listed here, and it is no random draw. Calls of active or inactive are those of the source.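 How the source made its calls: active means thallium flux slope and its plate-corrected score both differing from the plate sample mean at a set confidence after two filtering rounds, in either direction; inactive means the rest.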

The assay has as its target Solute carrier family 12 member 5 (Homo sapiens) (UniProt Q9H2X9). Nature of the assay: KCC2 cotransporter modulators, thallium flux, primary screen, cell-based, HEK293 KCC2, FluoZin-2 fluorescence, MLSMR (AID 1456). The conditions noted are these: KCC2 cells, thallium flux FluoZin-2 fluorescence; at 10 µM; stronger effect = higher value.
For the compound `COP1(=S)c2c(C)nn(CCC#N)c2N=C(c2ccc(F)cc2)N1C` (stereo not drawn), the B-score was inactive: 0.865. For the compound `CCC(C)N(CC(C)C)C(=S)SC(NC(C)=O)C(Cl)(Cl)Cl` (stereo not drawn), the B-score was inactive: -0.0651.

For the compound `CCOC(=O)c1ccc(NC(=O)C(C)(CCl)SC)cc1` (stereo not drawn), the B-score is inactive: 0.155. As to `Cc1cc(SC(NC(=O)c2ccccc2)C(Cl)(Cl)Cl)nc(C(C)C)n1` (stereo not drawn), the B-score was inactive: 0.89. For the compound `CCOC(=O)Nc1ccc([As](=O)(O)O)c(O)c1`, the B-score was inactive: -0.0465. The same measure for `O=[N+]([O-])c1ccc(Nc2ccc(Oc3ccc([N+](=O)[O-])cc3[N+](=O)[O-])cc2)c([N+](=O)[O-])c1`: inactive: -0.305; for `O=P(Nc1ccccn1)(c1cccc2ccccc12)c1cccc2ccccc12`: inactive: -1.39. For `Cc1cc(SC(NC=O)C(Cl)(Cl)Cl)ncn1` (stereo not drawn), the B-score is inactive: 0.371. The same measure for `CCOC(=O)Nc1cccc([As](=O)(O)O)c1`: inactive: 0.803; for `Cc1ccc2nc3c(c(C)c2c1)CC(C(Cl)Cl)S3` (stereo not drawn): inactive: 0.508. Then `Cc1ccc(OP(=O)(Nc2ccc([N+](=O)[O-])cn2)Oc2ccc(C)cc2)cc1`, with inactive: -0.501. The same measure for `O=[As](O)(c1ccc(O)cc1)c1ccccc1O`: inactive: 1.3; for `C[As](=O)(O)c1cccc(C(=O)O)c1`: inactive: -0.593; for `O=[N+]([O-])c1cc([N+](=O)[O-])c(-c2ccn[nH]2)s1`: inactive: -0.0282.

`CC(C)NC(=O)NP(=O)(Oc1ccccc1)Oc1ccccc1`: the B-score is inactive: 0.206.

`CCN(CC)C(=S)SC(NC=O)C(Cl)(Cl)Cl` (stereo not drawn): the B-score is inactive: 1.41. Regarding `CC(C)c1ccc(OP(=O)(Nc2ccccn2)Oc2ccccc2F)cc1` (stereo not drawn), the B-score was inactive: -0.629. With `ClCCSc1nnc(-c2cccnc2)o1`, the B-score is inactive: -0.809. Then `COc1cc(I)ccc1[As](=O)(O)O`, with inactive: 0.577; and `COc1ccc2nc(NP(=O)(c3ccccc3)c3ccccc3)sc2c1`, with inactive: 0.111. Then `Cc1cc(=O)[nH]c(N[N+](=O)[O-])n1`, with inactive: -0.0625; and `O=C(OC1CN2CCC1CC2)C12CC3CC(CC(C3)C1)C2` (stereo not drawn), with inactive: 0.0478; and `Cc1c2c(nc3ccccc13)SC(C(Cl)Cl)C2` (stereo not drawn), with inactive: -1.05. Take `COc1ccc(N/C(=N/P(=O)(N2CCOCC2)N2CCOCC2)N2CCOCC2)cc1`: the B-score is inactive: 0.385. Turning to `Cc1cccc(OCC(=O)OC2CN3CCC2CC3)c1` (stereo not drawn), the B-score is inactive: 0.726. Take `O=[As](O)(c1cccc(O)c1)c1cccc(O)c1`: the B-score was inactive: -0.285. On to `O=[As](O)(O)c1cccnc1`, for which the B-score is inactive: 0.892. Take `COc1cc(C(=O)NCC2(N3CCOCC3)CCCCC2)cc(Cl)c1OC(C)C`: the B-score is inactive: -0.00194.
